Results reported in ChEMBL document CHEMBL3588848, “Dihydropyrrolopyrazol-6-one MCHR1 antagonists for the treatment of obesity: Insights on in vivo efficacy from a novel FLIPR assay setup” (Bioorg Med Chem Lett, 2015).

Tests used:
[1] = Ratio of drug level in brain to plasma in Sprague-Dawley rat assessed as 2-(4-chlorophenyl)-5-(4-(2-hydroxy-2-methylpropoxy)-3-methoxyphenyl)-4,5-dihydropyrrolo[3,4-c]pyrazol-6(2H)-one at 30 mg/kg, po qd measured at 20 hrs post dose
[2] = Ratio of unbound concentration in Sprague-Dawley rat brain assessed as 2-(4-chlorophenyl)-5-(4-(2-hydroxy-2-methylpropoxy)-3-methoxyphenyl)-4,5-dihydropyrrolo[3,4-c]pyrazol-6(2H)-one at 30 mg/kg, po qd to Ki for rat MCHR1 assessed as 2-(4-chlorophenyl)-5-(4-(2-hydroxy-2-methylpropoxy)-3-methoxyphenyl)-4,5-dihydropyrrolo[3,4-c]pyrazol-6(2H)-one; type: ADME, organism-based; details: in vivo

Which BPR [1] does the source give for `COc1cc(N2Cc3cn(-c4ccc(Cl)cc4)nc3C2=O)ccc1OCC(C)(C)OC(=O)CN` here?
The BPR was 0.42.

What about the Ratio [2] of the same molecule?
The Ratio was 2.8.
